# Assay results: patent publication US5283236A, “Systemic delivery of polypeptides through the eye” (Orbon Corporation, priority 1992, dated 1994)
# Like-named read-outs stand apart in the source and are kept apart here.
# What was measured:
# [1] = Blood concentration of TRH, LHRH, glucagon after ocular or i.v. administration (Example 5)
# Description: The concentrations of peptides in the blood were expressed in ng/ml.
# [2] = Peptides remaining in eye tissues at the end of 12 hr experiment (Example 5); type: in vivo, New Zealand white female rabbits; conditions: for Residual amount of glucagon remaining in tissues, % of instilled, Total / Residual amount of glucagon remaining in tissues, Amount, Total: TOTAL of eye tissues
# [3] = 6 hr; for Residual amount of glucagon remaining in tissues, % of instilled, Total / Residual amount of glucagon remaining in tissues, Amount, Total: Total of eye tissues
# [4] = Blood glucagon concentration after ocular or i.v. glucagon (Example 3)
substance,measurement,setting,value
Glucagon,blood glucagon concentration remained at,"[1]; 0.625 ug glucagon i.v., for 5 hrs",0.27 to 0.3 ng/mL
same,blood glucagon plateau concentration,"[1]; 1% glucagon instilled, plateau in 3 hrs",60 ng/mL
same,blood glucagon concentration reached,"[1]; 5% glucagon instilled, in 4 hrs",155 ng/mL
same,"Residual amount of glucagon remaining in tissues, % of instilled","[2]; Choroid, 1% glucagon",0.0056 ± 0.0030%
same,"Residual amount of glucagon remaining in tissues, % of instilled","[2]; Choroid, 5% glucagon",0.0106 ± 0.0033%
same,"Residual amount of glucagon remaining in tissues, % of instilled","[2]; Ciliary-Body, 1% glucagon",0.0050 ± 0.0028%
same,"Residual amount of glucagon remaining in tissues, % of instilled","[2]; Ciliary-Body, 5% glucagon",0.0062 ± 0.0019%
same,"Residual amount of glucagon remaining in tissues, % of instilled","[2]; Cornea, 1% glucagon",0.0818 ± 0.0427%
same,"Residual amount of glucagon remaining in tissues, % of instilled","[2]; Cornea, 5% glucagon",0.0880 ± 0.0370%
same,"Residual amount of glucagon remaining in tissues, % of instilled","[2]; Iris, 1% glucagon",0.0067 ± 0.0043%
same,"Residual amount of glucagon remaining in tissues, % of instilled","[2]; Iris, 5% glucagon",0.0098 ± 0.0032%
same,"Residual amount of glucagon remaining in tissues, % of instilled","[2]; Lens, 1% glucagon",0.0449 ± 0.0232%
same,"Residual amount of glucagon remaining in tissues, % of instilled","[2]; Lens, 5% glucagon",0.0555 ± 0.0255%
same,"Residual amount of glucagon remaining in tissues, % of instilled","[2]; Retina, 1% glucagon",0.0064 ± 0.0033%
same,"Residual amount of glucagon remaining in tissues, % of instilled","[2]; Retina, 5% glucagon",0.0068 ± 0.0025%
same,"Residual amount of glucagon remaining in tissues, % of instilled, Total",[2]; 1% glucagon,0.1504%
same,"Residual amount of glucagon remaining in tissues, Amount, Total",[2]; 1% glucagon,376.09 ng
same,"Residual amount of glucagon remaining in tissues, % of instilled, Total",[2]; 5% glucagon,0.1769%
same,"Residual amount of glucagon remaining in tissues, Amount, Total",[2]; 5% glucagon,2210.57 ng
same,share of eye-tissue glucagon remaining in the cornea,[3]; 0.2% solution,71%
same,"total glucagon remaining in the eye tissues except cornea, of quantity instilled",[3]; 0.2% solution,0.105%
same,share of eye-tissue glucagon remaining in the cornea,[3]; 1% solution,84%
same,"total glucagon remaining in the eye tissues except cornea, of quantity instilled",[3]; 1% solution,0.103%
same,share of eye-tissue glucagon remaining in the cornea,[3]; 5% solution,87%
same,"total glucagon remaining in the eye tissues except cornea, of quantity instilled",[3]; 5% solution,0.123%
same,"Residual amount of glucagon remaining in tissues, % of instilled","[3]; Choroid, 0.2% glucagon",0.0042 ± 0.0011%
same,"Residual amount of glucagon remaining in tissues, % of instilled","[3]; Choroid, 1% glucagon",0.0052 ± 0.0018%
same,"Residual amount of glucagon remaining in tissues, % of instilled","[3]; Choroid, 5% glucagon",0.0046 ± 0.0011%
same,"Residual amount of glucagon remaining in tissues, % of instilled","[3]; Ciliary-Body, 0.2% glucagon",0.0074 ± 0.0025%
same,"Residual amount of glucagon remaining in tissues, % of instilled","[3]; Ciliary-Body, 1% glucagon",0.0102 ± 0.0031%
same,"Residual amount of glucagon remaining in tissues, % of instilled","[3]; Ciliary-Body, 5% glucagon",0.0123 ± 0.0031%
same,"Residual amount of glucagon remaining in tissues, % of instilled","[3]; Cornea, 0.2% glucagon",0.2565 ± 0.0860%
same,"Residual amount of glucagon remaining in tissues, % of instilled","[3]; Cornea, 1% glucagon",0.5260 ± 0.1460%
same,"Residual amount of glucagon remaining in tissues, % of instilled","[3]; Cornea, 5% glucagon",0.7930 ± 0.2101%
same,"Residual amount of glucagon remaining in tissues, % of instilled","[3]; Iris, 0.2% glucagon",0.0202 ± 0.0080%
same,"Residual amount of glucagon remaining in tissues, % of instilled","[3]; Iris, 1% glucagon",0.0309 ± 0.0103%
same,"Residual amount of glucagon remaining in tissues, % of instilled","[3]; Iris, 5% glucagon",0.0322 ± 0.0073%
same,"Residual amount of glucagon remaining in tissues, % of instilled","[3]; Lens, 0.2% glucagon",0.0701 ± 0.0302%
same,"Residual amount of glucagon remaining in tissues, % of instilled","[3]; Lens, 1% glucagon",0.0542 ± 0.0143%
same,"Residual amount of glucagon remaining in tissues, % of instilled","[3]; Lens, 5% glucagon",0.0697 ± 0.0169%
same,"Residual amount of glucagon remaining in tissues, % of instilled","[3]; Retina, 0.2% glucagon",0.0028 ± 0.0007%
same,"Residual amount of glucagon remaining in tissues, % of instilled","[3]; Retina, 1% glucagon",0.0025 ± 0.0008%
same,"Residual amount of glucagon remaining in tissues, % of instilled","[3]; Retina, 5% glucagon",0.0045 ± 0.0019%
same,"Residual amount of glucagon remaining in tissues, % of instilled, Total",[3]; 0.2% glucagon,0.3612%
same,"Residual amount of glucagon remaining in tissues, Amount, Total",[3]; 0.2% glucagon,180.64 ng
same,"Residual amount of glucagon remaining in tissues, % of instilled, Total",[3]; 1% glucagon,0.6290%
same,"Residual amount of glucagon remaining in tissues, Amount, Total",[3]; 1% glucagon,1572.46 ng
same,"Residual amount of glucagon remaining in tissues, % of instilled, Total",[3]; 5% glucagon,0.9163%
same,"Residual amount of glucagon remaining in tissues, Amount, Total",[3]; 5% glucagon,11452.55 ng
same,blood glucagon plateau concentration,"[4]; 25 ul of 1% glucagon instilled, plateau in 2 hrs",37 ng/mL
same,blood concentration of glucagon reached,"[4]; 25 ul of 5% glucagon (1250 ug) instilled, rising over 6 hrs",130 ng/mL
